# Measured values from ChEMBL document CHEMBL4402532, “Heme Oxygenase-2 (HO-2) as a therapeutic target: Activators and inhibitors” (Eur J Med Chem, 2019).
# Biological target: T1, Heme oxygenase 1 (Rattus norvegicus, UniProt P06762)
# T1 sequence (P06762 whole entry): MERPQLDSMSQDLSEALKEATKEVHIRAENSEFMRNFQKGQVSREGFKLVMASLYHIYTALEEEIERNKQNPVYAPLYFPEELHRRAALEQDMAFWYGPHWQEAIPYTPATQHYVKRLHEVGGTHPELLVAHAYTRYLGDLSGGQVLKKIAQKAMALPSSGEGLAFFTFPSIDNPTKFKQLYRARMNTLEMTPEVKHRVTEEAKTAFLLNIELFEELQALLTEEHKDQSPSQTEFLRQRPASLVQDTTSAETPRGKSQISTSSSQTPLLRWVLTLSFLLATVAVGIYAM
# Test: Inhibition of Sprague-Dawley rat spleen microsome HO-1 preincubated for 10 mins followed by beta-NADPH addition and measured after 15 mins by gas chromatography
# Format: microsomes
smiles,measurement,value
O=C(CCc1ccccc1)Cn1ccnc1,pIC50,5.82

# pIC50: −log10 of the molar value.
